How the values were obtained:
[1] = target: human A1 receptor subtype (Homo sapiens, UniProt P30542); assay: biochemical
[2] = target: T1, human A2a receptor subtype (Homo sapiens, UniProt P29274); assay: Adenosine 2a receptor subtype competition radioligand binding ([3H]CGS-21680, HEK293 membranes); conditions: Table 13
T1 construct: expressed in transfected cells; host or cells: HEK-293 (Cadus clone # 5)

Sequences of proteins named here, by UniProt entry; tags and fusion partners are left off.
UniProt P30542, whole entry: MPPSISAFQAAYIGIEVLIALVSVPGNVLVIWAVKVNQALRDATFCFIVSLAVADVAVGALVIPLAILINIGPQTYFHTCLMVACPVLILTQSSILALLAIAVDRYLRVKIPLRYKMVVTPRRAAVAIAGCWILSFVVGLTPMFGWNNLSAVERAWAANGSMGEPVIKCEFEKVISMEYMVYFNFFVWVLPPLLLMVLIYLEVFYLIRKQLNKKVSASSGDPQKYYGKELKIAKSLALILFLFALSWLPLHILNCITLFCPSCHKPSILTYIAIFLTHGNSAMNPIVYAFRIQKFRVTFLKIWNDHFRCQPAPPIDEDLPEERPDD

[3] = target: T2, human A2b receptor subtype (Homo sapiens, UniProt P29275); assay: Adenosine 2b receptor subtype competition radioligand binding ([3H]DPCPX, HEK293 membranes); conditions: Table 13
T2 construct: expressed in transfected cells; host or cells: HEK293
T2 sequence (P29275 1-332): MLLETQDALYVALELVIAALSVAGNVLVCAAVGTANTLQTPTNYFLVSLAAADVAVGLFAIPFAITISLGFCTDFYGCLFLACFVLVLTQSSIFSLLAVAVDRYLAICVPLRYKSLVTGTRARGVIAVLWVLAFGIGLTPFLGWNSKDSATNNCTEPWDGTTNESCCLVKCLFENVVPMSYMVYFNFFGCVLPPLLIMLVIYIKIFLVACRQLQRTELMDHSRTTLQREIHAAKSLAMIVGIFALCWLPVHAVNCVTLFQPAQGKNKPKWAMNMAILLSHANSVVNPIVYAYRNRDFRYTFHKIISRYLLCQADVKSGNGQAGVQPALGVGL

Compound | Ki [1] [nM] | Ki [2] [nM] | Ki [3] [nM]
Cc1[nH]c2nc(-c3ccccc3)nc(NC3CC[C@@H](O)C3)c2c1C (stereo partly drawn) [Compound 1307] | 29.1 | – | –
CC(=O)NC1CCCN(Nc2nc(-c3ccccc3)nc3[nH]c(C)c(C)c23)C1 (stereo not drawn) [Compound 1309] | – | 109 | 109

Reference: US6878716B1, “Compounds specific to adenosine A1 receptor and uses thereof” (OSI Pharmaceuticals, Inc., priority 1998, dated 2005)
